Results on one substance are retold here after PMC11452662, “Biofunctionalized dissolvable hydrogel microbeads enable efficient characterization of native protein complexes” (Nature Communications, 2024).

Chains of the proteins cited; added tags and fusions are not shown.
UniProt P69905, whole entry, chain 1 of 2: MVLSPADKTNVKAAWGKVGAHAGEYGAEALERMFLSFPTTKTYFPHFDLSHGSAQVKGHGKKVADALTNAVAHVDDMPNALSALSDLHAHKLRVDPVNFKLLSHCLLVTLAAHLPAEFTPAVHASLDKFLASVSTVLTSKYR

The test concerns the target Hemoglobin bait conjugated to SNAP beads (UniProt P69905). The experiment in a line: native MS; tandem MS with increasing collisional energy of the bait-target complex Hp(2)Hb(4)Ab(1), Hb as bait. The conditions noted are these: scale: Hb subunits per Hp protomer.

Take Hp of the Hp(2)Ab(1) complex: the stoichiometry N (as a rule, a count of units in the complex or per binding partner) turned out to be 2.
